Results on two substances are retold here after patent publication US7141603B2, “Antitumor agents” (The Regents of The University California, priority 1999, dated 2006).

Data set [1] is described as follows: Tolerated dose / toxicity on administration. The note with it: in vivo. An excerpt:
As one skilled in the art would recognize, the amount can be varied depending on the method of administration.

The subject of data set [2] is MV522 lung carcinoma xenograft. The experiment in a line: Test B in vivo MV522 lung carcinoma xenograft. The settings on record: daily IP for 5 consecutive days, MV522 xenograft mice. The source says: Several representative compounds of the invention were chosen for in vivo studies. […] Drug therapy was started 10 days after inoculation on a daily basis via IP route for 5 consecutive days. The animals were monitored for 3 weeks after start of therapy.
BALB/c nu/nu 4-week old female mice weighing 18–22 g were obtained from Simonsen, Inc. (Gilroy, Calif.) and maintained in the athymic mouse colony of the University of California (San Diego, Calif.) under pathogen free conditions using HEPA filter hoods. Animals were provided with sterilized food and water ad libitum in groups of 5 in plastic cages vented with polyester fiber filter covers. […]
Each animal was earmarked and followed individually throughout the experiments. […] The effect of the compound on life span was calculated from median survival.
Although MV522 cells kill mice by metastases, primary s.c. tumor growth over the shoulder was monitored starting on the first day of treatment and at weekly intervals thereafter. Tumor size was measured in two perpendicular diameters. […] Relative weights (RW) were calculated to standardized variability in tumor size among test groups at initiation of treatment using the formula RW=Wt/wi, where Wi is the tumor weight for a given animal at beginning of drug treatment and Wt is tumor weight at a subsequent time. […]

Take Illudin S [reference compound]: the maximum tolerated dose entry in data set [1] is listed as “about 250 ug/kg”.

On to mitomycin C [reference compound], for which the “MTD reached in Test B” value in data set [2] is reported as “reached”.
